Amino acid sequences for entries named in this document (tags omitted).
UniProt P50613, whole entry: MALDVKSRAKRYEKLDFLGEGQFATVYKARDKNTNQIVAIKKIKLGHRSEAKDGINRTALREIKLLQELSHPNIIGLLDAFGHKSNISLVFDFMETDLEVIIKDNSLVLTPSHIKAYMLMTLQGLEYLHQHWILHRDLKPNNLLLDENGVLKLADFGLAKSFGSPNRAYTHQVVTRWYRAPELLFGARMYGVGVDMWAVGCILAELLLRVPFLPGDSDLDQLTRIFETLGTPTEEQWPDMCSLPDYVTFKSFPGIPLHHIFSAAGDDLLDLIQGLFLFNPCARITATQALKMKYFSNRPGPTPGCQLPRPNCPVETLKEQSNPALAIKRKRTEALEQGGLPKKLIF
UniProt P51948, whole entry partner: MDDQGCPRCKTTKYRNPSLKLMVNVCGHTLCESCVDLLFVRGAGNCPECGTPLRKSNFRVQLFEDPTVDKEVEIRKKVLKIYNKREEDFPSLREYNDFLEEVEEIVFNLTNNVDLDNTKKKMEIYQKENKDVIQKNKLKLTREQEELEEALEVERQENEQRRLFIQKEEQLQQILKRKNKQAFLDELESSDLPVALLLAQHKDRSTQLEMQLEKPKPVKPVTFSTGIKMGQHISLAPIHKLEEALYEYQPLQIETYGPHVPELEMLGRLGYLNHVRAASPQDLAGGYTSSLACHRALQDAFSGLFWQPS
UniProt P51946, whole entry partner: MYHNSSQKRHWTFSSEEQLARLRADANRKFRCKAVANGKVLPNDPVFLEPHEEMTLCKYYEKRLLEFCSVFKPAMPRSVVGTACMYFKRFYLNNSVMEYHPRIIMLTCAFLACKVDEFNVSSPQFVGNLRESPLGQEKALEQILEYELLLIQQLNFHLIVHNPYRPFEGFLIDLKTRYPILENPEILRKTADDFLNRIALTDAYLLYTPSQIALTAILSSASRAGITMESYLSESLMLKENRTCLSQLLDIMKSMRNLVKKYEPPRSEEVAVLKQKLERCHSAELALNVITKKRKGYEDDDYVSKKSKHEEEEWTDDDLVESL

In patent publication US20240254138A1, “TRICYCLIC PYRIMIDINES AS CYCLIN-DEPENDENT KINASE 7 (CDK7) INHIBITORS” (JANSSEN PHARMACEUTICA NV, priority 2021, published 2024):

Legend:
[1] = target: CDK7/cyclinH/MAT1 trimeric complex (Homo sapiens, UniProt P50613); assay: In vitro CDK7 assay, potency of irreversible covalent inhibitors (kinact/KI), coupled PK/LDH ADP readout at 340 nm; conditions: 20 nM enzyme
[2] = tested on: RNA Polymerase II Serine 5 phosphorylation (Rpb1 CTD, downstream substrate of CDK7) in A549 cells; assay: Imaging-based cellular RNA PolII Ser5 phosphorylation assay in A549 cells; conditions: averaged over all measurements
Method: (§1) To evaluate inhibition of CDK7 kinase activity, a 384-well automated imaging assay was used. This assay detects Serine 5 phosphorylation on a unique heptapeptide sequence in the C-terminal domain of Rpb1 subunit of RNA polymerase II, the downstream substrate of CDK7. This heptapeptide sequence is repeated up to 52 times in the CTD of Rpb1. […]
(§2) RNA Polymerase II Serine 5 phosphorylation was detected using a specific rabbit Phospho-Rpb1 CTD (Ser5) antibody. […]
(§3) After removing blocking buffer 20 μl 1/1000 primary antibody rabbit Phospho-Rpb1 CTD (Ser5) antibody was added which binds to the phosphorylated Serine5 of the heptapeptide sequences in the CTD of Rpb1. […] Last, plates were washed 2 times with 30 μl D-PBS and wells were filled with 40 μL D-PBS, plates were sealed (Thermowell sealing tape) and stored at 4° C. until reading. Plates were read with Opera Phenix (Perkin Elmer) with 10× air objective. Data were calculated and analyzed in Phaedra.
(§4) IC50 values were calculated using the following formula: […]

[3] = tested on: RNA Polymerase II Serine 5 phosphorylation in A549 cells overexpressing CDK7-mutant (C312S); assay: Imaging-based cellular RNA PolII Ser5 phosphorylation assay in A549 cells overexpressing CDK7-mutant (C312S); format: cell-based, human; conditions: averaged over all measurements
Method: as §1, §2, §3, §4

CDK7 (20 nM enz.) (kinact, s^−1) [1]: 5.231e-05 s⁻¹ | CDK7 (20 nM enz.) (kinact/KI, M^−1*s^−1) [1]: 1158.02 M⁻¹ s⁻¹ | Ki ([1]; read-out: CDK7 (20 nM enz.) (KI)): 0.0452 µM | CDK7_A549 Wild-type CDK7 (pIC50) [2]: 6.8 | CDK7_A549 mutant hCDK7(pIC50) [3]: <5
SMILES: CC#CC(=O)N1CC(N2CCC(c3cc4c(c(C#N)n3)OCc3c(N5CCOCC5)ccnc3N4)CC2)C1
